# Reference: PubChem BioAssay AID504445 (The Scripps Research Institute Molecular Screening Center, 2011)
# Protein sequences, listed by entry. Tags and fused reporters are not part of them. Lines headed by an entry give the natural chain unless they say otherwise; changes in a name come on top.
# UniProt Q8NCG7: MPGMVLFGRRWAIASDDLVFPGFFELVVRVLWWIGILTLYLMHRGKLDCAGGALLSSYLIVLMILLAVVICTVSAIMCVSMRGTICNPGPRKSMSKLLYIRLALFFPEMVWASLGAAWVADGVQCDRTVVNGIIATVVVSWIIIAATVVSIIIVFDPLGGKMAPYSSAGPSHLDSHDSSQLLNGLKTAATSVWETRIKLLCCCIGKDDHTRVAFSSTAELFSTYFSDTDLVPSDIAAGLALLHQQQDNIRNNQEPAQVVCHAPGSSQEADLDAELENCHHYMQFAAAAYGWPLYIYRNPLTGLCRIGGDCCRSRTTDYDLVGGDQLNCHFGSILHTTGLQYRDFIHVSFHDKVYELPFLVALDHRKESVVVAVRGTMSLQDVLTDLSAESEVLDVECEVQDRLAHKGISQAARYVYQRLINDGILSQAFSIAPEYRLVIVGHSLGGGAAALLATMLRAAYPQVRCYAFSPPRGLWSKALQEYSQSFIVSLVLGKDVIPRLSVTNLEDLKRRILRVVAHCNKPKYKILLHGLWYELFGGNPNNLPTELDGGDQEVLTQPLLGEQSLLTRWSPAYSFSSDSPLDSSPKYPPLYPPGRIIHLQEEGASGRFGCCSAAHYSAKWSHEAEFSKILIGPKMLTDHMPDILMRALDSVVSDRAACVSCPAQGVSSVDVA
# Only a part is listed here, and it is no random draw. Calls of active or inactive are those of the source.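 Rule for the calls: active = mean inhibition over triplicate wells above a set limit taken from the primary lipase screen (cut at about 34% in these data); inactive = the rest.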
# Molecular target: Diacylglycerol lipase-beta (Homo sapiens) (UniProt Q8NCG7)
# Assay: DAGLB lipase inhibitors, retest, confirmation, biochemical, fluorescence, HEK293T membranes (AID 504445);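 note: 0% = DAGLB with DMSO and 100% = wells lacking DAGLB enzyme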
# Details: HEK293T DAGLB membrane lysate, EnzChek fluorogenic substrate; at 5.17 µM; hits give high values
compound,measurement,value
O=[N+]([O-])c1ccc(-c2cc([N+](=O)[O-])c(O)c([N+](=O)[O-])c2)cc1,inhibition,active: 66.3%
